## Apparent affinities of Ab-14 variants for a coronavirus HR2 peptide

All variants were tested on one target, the spike HR2 peptide PDVDLGDISGINAS (SARS-CoV-2).

Parent: Ab-14, a human scFv built as VH, three GGGGS repeats, VL. Only the CDRs of the light chain vary.
VH: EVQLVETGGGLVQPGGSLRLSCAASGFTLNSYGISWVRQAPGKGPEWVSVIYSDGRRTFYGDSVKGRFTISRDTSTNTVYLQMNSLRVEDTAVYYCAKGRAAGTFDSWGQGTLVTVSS
VL: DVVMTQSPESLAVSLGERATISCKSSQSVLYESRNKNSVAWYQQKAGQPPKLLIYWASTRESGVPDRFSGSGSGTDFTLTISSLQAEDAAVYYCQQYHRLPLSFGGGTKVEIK

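The parent was found by panning a naive human phage display library on the peptide. Designed CDR sequences, proposed from the first random library and measured here. Their group label is 14L_GP_Gen (GP: Gaussian process model; Gen: genetic algorithm; a sequence that several methods proposed may carry one label only). In AlphaSeq, yeast of one mating type display the scFv and yeast of the other type display the target. Pairs that bind mate more often; barcode pairs of the diploids are counted by sequencing. Read counts were normalised to the haploid input and turned into Kd by a linear fit to BCL2-family pairs of known affinity, for each replicate. Each pool was mated in six replicate cultures.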

Each variant's VL is given in full.
The read-out is the apparent dissociation constant on a log10 scale (nM): the lower, the stronger.
"ND" means that the variant was in the library but no mating with the target was seen in that replicate; the authors take this as a sign of poor binding, and no number exists.

VL,"replicates, log10 nM",signal with controls
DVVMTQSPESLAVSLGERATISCKLSQSQLYEDRNKNSVAWYQQKAGQPPKLLIYNASQRESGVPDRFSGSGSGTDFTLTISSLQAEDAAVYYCQQYHRLPLSFGGGTKVEIK,ND / ND / ND / 1.40 / 3.46 / 1.46,0/18
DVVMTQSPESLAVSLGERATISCKLSQSHLYESRNKNNVAWYQQKAGQPPKLLIYDASTRESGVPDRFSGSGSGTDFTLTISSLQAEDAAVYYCQQYHRLPLSFGGGTKVEIK,-0.61 / -0.70 / -0.68 / -0.84 / -0.74 / -0.65,0/18
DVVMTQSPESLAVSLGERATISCKLSQSVLYESRNKNSVAWYQQKAGQPPKLLIYNASQRSSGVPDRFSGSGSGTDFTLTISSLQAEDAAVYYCQQYHRLPLSFGGGTKVEIK,0.24 / -0.34 / -1.18 / -1.18 / -0.89 / -0.59,0/18
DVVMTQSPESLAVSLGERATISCKLSQSELYESRNKNSVAWYQQKAGQPPKLLIYNASQREDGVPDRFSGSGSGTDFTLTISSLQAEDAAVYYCQQYHRLPLSFGGGTKVEIK,0.63 / 0.82 / 0.24 / 0.03 / -0.03 / 0.22,0/18
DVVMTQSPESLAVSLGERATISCKLPQSVLYEGRNKNSVAWYQQKAGQPPKLLIYSASTRESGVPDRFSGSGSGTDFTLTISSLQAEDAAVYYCQQYHRLPLSFGGGTKVEIK,0.28 / 0.49 / 0.19 / 0.11 / 0.53 / 0.93,1/18 (3.30)
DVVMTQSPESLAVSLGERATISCKLQQSDLYESRNKNSVAWYQQKAGQPPKLLIYNASERESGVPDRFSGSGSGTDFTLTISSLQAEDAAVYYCQQYHRLPLSFGGGTKVEIK,0.63 / 0.51 / 0.52 / 0.01 / 0.39 / 0.66,0/18
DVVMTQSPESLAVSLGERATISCKFSQSWLYESRNKNSVAWYQQKAGQPPKLLIYNASTRMSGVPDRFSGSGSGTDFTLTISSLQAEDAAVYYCQQYHRLPLSFGGGTKVEIK,-0.08 / -0.31 / -0.19 / -0.41 / -0.41 / -0.23,2/18 (2.79)
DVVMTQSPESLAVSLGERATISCHLSQSVLYESRNKNSVAWYQQKAGQPPKLLIYNASTREQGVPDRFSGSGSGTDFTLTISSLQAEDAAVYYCQQYHRLPLSFGGGTKVEIK,-0.15 / -0.56 / -0.58 / -0.62 / -0.53 / -0.44,0/18
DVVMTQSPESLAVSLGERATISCKLSQSEGYESRNKNSVAWYQQKAGQPPKLLIYNASTRMSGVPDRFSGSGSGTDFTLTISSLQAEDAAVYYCQQYHRLPLSFGGGTKVEIK,-0.16 / -0.05 / -0.18 / -0.20 / -0.31 / 0.08,3/18 (2.05)
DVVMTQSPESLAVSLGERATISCKLSQSWLYESRNKNNVAWYQQKAGQPPKLLIYQASQRESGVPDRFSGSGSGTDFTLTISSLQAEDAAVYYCQQYHRLPLSFGGGTKVEIK,-0.32 / -0.40 / -0.55 / -0.48 / -0.51 / -0.36,0/18
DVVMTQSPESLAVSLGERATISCKLSQSWLYESRNKNSVAWYQQKAGQPPKLLIYQASTRESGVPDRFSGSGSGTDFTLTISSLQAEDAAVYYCQQYHRLPLSFGGGTKVEIK,0.58 / 0.49 / 0.29 / 0.43 / 0.46 / 0.55,0/18
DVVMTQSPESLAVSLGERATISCKLMQSVLYESRNKNSVAWYQQKAGQPPKLLIYNASYRESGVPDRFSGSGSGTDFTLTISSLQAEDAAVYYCQQYHRLPLSFGGGTKVEIK,0.02 / -0.25 / -0.25 / -0.28 / -0.29 / -0.16,1/18 (2.74)
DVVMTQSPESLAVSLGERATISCKLSQSVLYEERNKNSVAWYQQKAGQPPKLLIYNASTRESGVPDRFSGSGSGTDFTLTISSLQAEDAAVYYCQQYHRLPLSFGGGTKVEIK,-0.17 / -0.47 / -0.41 / -0.55 / -0.42 / -0.30,1/18 (3.10)
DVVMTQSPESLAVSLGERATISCKLEQSQGYESRNKNSVAWYQQKAGQPPKLLIYNASQRESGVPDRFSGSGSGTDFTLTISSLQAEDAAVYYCQQYHRLPLSFGGGTKVEIK,1.02 / 0.59 / 1.59 / 1.01 / 0.95 / 1.21,0/18
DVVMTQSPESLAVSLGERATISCKLEQSELYESRNKNSVAWYQQKAGQPPKLLIYNASTRESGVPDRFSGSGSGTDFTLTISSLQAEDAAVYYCQQYHRLPLSFGGGTKVEIK,0.54 / 0.15 / 0.22 / 0.13 / 0.61 / 0.16,2/18 (2.34)
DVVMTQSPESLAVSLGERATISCKLSQSVLYESRNFNSVAWYQQKAGQPPKLLIYGASTRESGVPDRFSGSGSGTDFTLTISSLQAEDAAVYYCQQYHRLPLSFGGGTKVEIK,0.76 / 0.43 / 0.72 / 0.83 / 0.59 / 0.58,1/18 (2.28)
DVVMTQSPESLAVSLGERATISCKLSQSMLYESRNKWSVAWYQQKAGQPPKLLIYNASTRESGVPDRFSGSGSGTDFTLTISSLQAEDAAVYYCQQYHRLPLSFGGGTKVEIK,-0.17 / -0.10 / -0.15 / -0.33 / -0.25 / -0.13,3/18 (2.68)
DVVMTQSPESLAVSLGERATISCKLEQSQGYESRNKNSVAWYQQKAGQPPKLLIYNASTRESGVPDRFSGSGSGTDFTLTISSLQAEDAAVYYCQQYHRLPLSFGGGTKVEIK,-0.16 / -0.12 / 0.09 / -0.06 / -0.19 / 0.34,2/18 (3.83)
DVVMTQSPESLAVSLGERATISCKLSQSWLYESRQKNSVAWYQQKAGQPPKLLIYNASQRESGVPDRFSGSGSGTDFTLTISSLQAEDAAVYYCQQYHRLPLSFGGGTKVEIK,0.42 / 0.15 / 0.15 / -0.14 / -0.10 / 0.34,3/18 (2.22)
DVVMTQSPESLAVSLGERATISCKLSQSMLYESRNKNSVAWYQQKAGQPPKLLIYHASTRLSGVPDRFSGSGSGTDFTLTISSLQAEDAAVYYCQQYHRLPLSFGGGTKVEIK,0.53 / 0.14 / 0.29 / 0.12 / 0.59 / 0.71,0/18
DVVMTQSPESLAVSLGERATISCKLSQSEEYESRNKNSVAWYQQKAGQPPKLLIYEASTRESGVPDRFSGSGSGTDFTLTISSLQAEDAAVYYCQQYHRLPLSFGGGTKVEIK,1.48 / 0.87 / 0.80 / 0.91 / 2.47 / 1.45,1/18 (2.32)
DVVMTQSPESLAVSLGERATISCKLSQSDLYESRNKNNVAWYQQKAGQPPKLLIYEASTRCSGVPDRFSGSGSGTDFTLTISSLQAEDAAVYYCQQYHRLPLSFGGGTKVEIK,-0.24 / -0.05 / -0.47 / -0.42 / -0.30 / -0.34,2/18 (2.29)
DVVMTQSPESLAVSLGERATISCKLSQSVLYESRNWNSVAWYQQKAGQPPKLLIYNASTRLSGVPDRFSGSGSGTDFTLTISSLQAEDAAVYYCQQYHRLPLSFGGGTKVEIK,-0.03 / -0.08 / -0.19 / -0.27 / 0.14 / -0.03,1/18 (3.54)
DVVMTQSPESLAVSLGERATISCKLSQSVLYESRNKNNVAWYQQKAGQPPKLLIYNASTRSSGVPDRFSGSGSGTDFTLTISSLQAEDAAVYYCQQYHRLPLSFGGGTKVEIK,0.13 / 0.37 / 0.12 / 0.02 / 0.24 / 0.42,0/18
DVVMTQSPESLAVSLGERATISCHLSQSVLYESRQKNSVAWYQQKAGQPPKLLIYNASTRESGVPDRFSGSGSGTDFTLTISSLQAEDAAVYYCQQYHRLPLSFGGGTKVEIK,-0.19 / 0.07 / -0.11 / 0.41 / -0.23 / -0.17,1/18 (2.47)

Top 2 of the variants detected in all replicates, tightest first:

| VL | replicates, log10 nM | signal with controls |
|---|---|---|
| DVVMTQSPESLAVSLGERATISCKLSQSHLYESRNKNNVAWYQQKAGQPPKLLIYDASTRESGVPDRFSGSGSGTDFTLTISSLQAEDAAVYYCQQYHRLPLSFGGGTKVEIK | -0.61 / -0.70 / -0.68 / -0.84 / -0.74 / -0.65 | 0/18 |
| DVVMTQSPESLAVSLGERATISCKLSQSVLYESRNKNSVAWYQQKAGQPPKLLIYNASQRSSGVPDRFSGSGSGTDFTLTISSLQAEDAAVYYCQQYHRLPLSFGGGTKVEIK | 0.24 / -0.34 / -1.18 / -1.18 / -0.89 / -0.59 | 0/18 |

The range of this assay differs from that of the first round, and the authors advise against merging the two.
Empty control strains, which show no peptide, gave a signal in 4% of pairings with all light chain designs; the median was 2.64 and 95% of these signals were weaker than 1.59. No background was subtracted. The control count says in how many pairings with the empty strains this scFv gave a signal, with their mean in brackets.
In the paper, a design with two or fewer of six values counts as a poor binder.

Reference: Li et al. 2023, doi:10.1038/s41467-023-39022-2. File: FLAb, binding data.